Data: paper PMC13253105, “Chemical inhibition of a CBASS anti-bacteriophage defense” (iScience, 2026)

By UniProt entry, the sequences of proteins in these tests, tags left out. Residues count along the entry.
UniProt A0A2P0QGK5, 10-397 limits assumed: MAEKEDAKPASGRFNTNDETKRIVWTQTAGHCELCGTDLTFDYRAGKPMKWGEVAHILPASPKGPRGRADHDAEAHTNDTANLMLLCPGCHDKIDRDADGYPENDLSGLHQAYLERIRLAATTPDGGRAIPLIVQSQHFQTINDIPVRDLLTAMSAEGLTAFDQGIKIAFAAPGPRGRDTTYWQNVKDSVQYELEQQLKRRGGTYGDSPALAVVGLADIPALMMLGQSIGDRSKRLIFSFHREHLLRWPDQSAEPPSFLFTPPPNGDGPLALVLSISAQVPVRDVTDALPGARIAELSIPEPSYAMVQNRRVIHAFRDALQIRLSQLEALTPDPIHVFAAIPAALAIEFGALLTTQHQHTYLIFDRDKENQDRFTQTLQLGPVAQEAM

Molecular target: PsCap5 (Pseudomonas syringae pv. actinidiae, UniProt A0A2P0QGK5)
Assay type: biochemical
Conditions: ratio of IC50s, LlCap5 vs PsCap5

Compound: Cc1ccc(CNC(=O)c2ccc(Cn3c(=O)c4ccccc4n(CC(=O)NCc4ccco4)c3=O)cc2)cc1 [Compound 20]
- higher potency against PsCap5 compared to LlCap5: ~5 ×
